{"sequences": {"note": "Sequences of proteins named here, by UniProt entry; tags and fusion partners are left off.", "UniProt Q9Y5Y9, whole entry": "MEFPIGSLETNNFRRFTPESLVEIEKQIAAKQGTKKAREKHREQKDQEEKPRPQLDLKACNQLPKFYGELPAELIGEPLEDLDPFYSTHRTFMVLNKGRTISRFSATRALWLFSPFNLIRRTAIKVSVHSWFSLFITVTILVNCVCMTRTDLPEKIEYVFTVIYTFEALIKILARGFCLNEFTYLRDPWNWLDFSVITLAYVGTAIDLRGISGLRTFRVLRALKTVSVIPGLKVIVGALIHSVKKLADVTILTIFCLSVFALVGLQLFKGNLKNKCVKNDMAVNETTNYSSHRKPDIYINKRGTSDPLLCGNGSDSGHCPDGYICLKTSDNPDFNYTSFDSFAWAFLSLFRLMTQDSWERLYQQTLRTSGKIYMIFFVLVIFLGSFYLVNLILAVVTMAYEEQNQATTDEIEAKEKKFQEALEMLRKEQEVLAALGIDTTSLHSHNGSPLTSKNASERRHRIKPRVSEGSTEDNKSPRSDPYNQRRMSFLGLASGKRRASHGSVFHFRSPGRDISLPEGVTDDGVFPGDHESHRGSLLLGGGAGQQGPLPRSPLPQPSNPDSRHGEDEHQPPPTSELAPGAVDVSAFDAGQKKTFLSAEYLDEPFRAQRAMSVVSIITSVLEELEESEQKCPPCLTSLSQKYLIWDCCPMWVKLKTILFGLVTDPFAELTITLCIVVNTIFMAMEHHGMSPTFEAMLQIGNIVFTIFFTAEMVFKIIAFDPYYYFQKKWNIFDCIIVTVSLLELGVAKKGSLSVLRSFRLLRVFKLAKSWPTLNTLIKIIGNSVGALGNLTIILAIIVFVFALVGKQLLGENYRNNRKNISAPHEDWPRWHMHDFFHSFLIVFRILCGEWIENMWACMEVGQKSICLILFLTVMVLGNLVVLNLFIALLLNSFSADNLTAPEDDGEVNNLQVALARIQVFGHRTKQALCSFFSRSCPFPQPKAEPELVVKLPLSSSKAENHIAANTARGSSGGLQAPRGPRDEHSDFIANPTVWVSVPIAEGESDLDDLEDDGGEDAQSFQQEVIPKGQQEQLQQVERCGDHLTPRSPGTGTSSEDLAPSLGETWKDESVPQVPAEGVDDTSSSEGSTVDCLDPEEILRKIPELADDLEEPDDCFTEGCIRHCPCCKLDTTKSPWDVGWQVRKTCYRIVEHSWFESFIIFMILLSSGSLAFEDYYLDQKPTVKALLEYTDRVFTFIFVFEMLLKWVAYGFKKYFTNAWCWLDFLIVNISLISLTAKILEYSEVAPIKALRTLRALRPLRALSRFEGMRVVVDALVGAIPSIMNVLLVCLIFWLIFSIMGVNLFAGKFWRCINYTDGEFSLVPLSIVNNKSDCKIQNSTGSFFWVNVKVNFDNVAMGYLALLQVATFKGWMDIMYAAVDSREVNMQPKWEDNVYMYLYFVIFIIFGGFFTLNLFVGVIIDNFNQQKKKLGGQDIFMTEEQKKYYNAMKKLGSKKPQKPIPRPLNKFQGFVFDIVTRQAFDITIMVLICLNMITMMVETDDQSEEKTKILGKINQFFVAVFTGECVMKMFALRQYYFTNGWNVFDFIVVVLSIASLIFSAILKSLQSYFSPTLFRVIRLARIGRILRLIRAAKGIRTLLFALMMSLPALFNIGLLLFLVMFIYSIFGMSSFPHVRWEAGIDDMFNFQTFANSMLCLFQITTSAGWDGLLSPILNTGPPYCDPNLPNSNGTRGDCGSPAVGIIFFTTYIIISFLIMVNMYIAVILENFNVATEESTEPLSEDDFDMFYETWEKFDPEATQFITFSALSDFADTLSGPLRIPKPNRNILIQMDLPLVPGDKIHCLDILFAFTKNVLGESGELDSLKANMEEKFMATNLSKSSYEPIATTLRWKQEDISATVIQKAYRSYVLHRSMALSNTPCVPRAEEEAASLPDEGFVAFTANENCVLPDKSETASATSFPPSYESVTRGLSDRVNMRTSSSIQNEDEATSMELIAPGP"}, "source": "patent US9051270B2", "about": "“Pyridone amides as modulators of sodium channels” (Vertex Pharmaceuticals Incorporated, priority 2013, dated 2015)", "target": "human Nav1.8 (Homo sapiens (Human), UniProt Q9Y5Y9)", "assay": "E-VIPR optical membrane potential assay with electrical stimulation", "format": "cell-based", "details": "HEK cells expressing human Nav1.8", "excerpt": "Sodium channels are voltage-dependent proteins that can be activated by inducing membrane voltage changes by applying electric fields. […] The instrument comprises a microtiter plate handler, an optical system for exciting the coumarin dye while simultaneously recording the coumarin and oxonol emissions, a waveform generator, a current- or voltage-controlled amplifier, and a device for inserting electrodes in well. Under integrated computer control, this instrument passes user-programmed electrical stimulus protocols to cells within the wells of the microtiter plate.\n24 hours before the assay on E-VIPR, HEK cells expressing human Nav1.8 were seeded in 384-well poly-lysine coated plates at 15,000-20,000 cells per well. […]\n7) Read Plate on E-VIPR. […]\nData was analyzed and reported as normalized ratios of emission intensities measured in the 460 nm and 580 nm channels. […]\nThe data was further reduced by calculating the initial (Ri) and final (Rf) ratios. […] The response to the stimulus R=Rf/Ri was then calculated and reported as a function of time.\nControl responses were obtained by performing assays in the presence of a compound with the desired properties (positive control), such as tetracaine, and in the absence of pharmacological agents (negative control). Responses to the negative (N) and positive (P) controls were calculated as above. […]"}
{"smiles": "Cc1cc(F)ccc1Oc1cc(C(F)(F)F)ccc1C(=O)Nc1cc[nH]c(=O)c1", "note": "[Compound 10, 2-(4-fluoro-2-methylphenoxy)-N-(2-oxo-1,2-dihydropyridin-4-yl)-4-(trifluoromethyl)benzamide]", "values": [{"measurement": "IC50", "value": 14, "unit": "nM"}]}
